The assay has as its target Sigma non-opioid intracellular receptor 1 (Homo sapiens, UniProt Q99720). The assay can be described thus: Inhibition of [3H](+)-SKF-10047 binding to sigma receptor.

In ChEMBL document CHEMBL1127992, “Novel conformationally restricted aromatic piperidines as selective sigma receptor ligands” (Bioorg Med Chem Lett, 1994) one finds Ki data, which are given here for two molecules.

In turn, `C(#Cc1ccccc1)CN(c1ccccc1)C1CCN(Cc2ccccc2)CC1.O=C(O)/C=C/C(=O)O` showed a Ki of 22 nM.
On to `C(=C\c1ccccc1)/CN(c1ccccc1)C1CCN(Cc2ccccc2)CC1.O=C(O)/C=C/C(=O)O`, for which the Ki is 1500 nM.
